Laboratory results from ChEMBL document CHEMBL1129509, “Hypoxia-selective antitumor agents. 12. Nitrobenzyl quaternary salts as bioreductive prodrugs of the alkylating agent mechlorethamine” (1996).

Key:
UV4 = assay: Hypersensitivity factor is the ratio of IC50 for AA8/IC50 for UV4 cell line; conditions: Cricetulus griseus
EMT6 [1] = assay: Ratio of aerobic C10 to that of hypoxic C10 for EMT cells; conditions: Mus musculus
EMT6 [2] = assay: Concentration to reduce EMT cell survival under hypoxic conditions (3h drug exposure) by clonogenic assay; conditions: Mus musculus
EMT6 [3] = assay: Hypersensitivity factor is the ratio of IC50 for AA8/IC50 for EMT6 cell line; conditions: Mus musculus
FME = assay: Hypersensitivity factor is the ratio of IC50 for AA8/IC50 for FME cell line; conditions: Homo sapiens

| SMILES | Hypersensitivity factor (UV4) | Ratio (EMT6 [1]) | C10 (EMT6 [2]) [mM·h] | Hypersensitivity factor (EMT6 [3]) | Hypersensitivity factor (FME) |
| --- | --- | --- | --- | --- | --- |
| CC(Cl)C[N+](C)(Cc1ccccc1[N+](=O)[O-])CC(C)Cl (stereo not given) | 2.6 | > 5.6 | 10 | 11 | 118 |
| COc1ccc(C[N+](C)(CCCl)CCCl)c([N+](=O)[O-])c1 | 435 | 3000 | 6.7 | 54 | 27 |
| C[N+](CCBr)(CCBr)Cc1ccccc1[N+](=O)[O-] | 17 | > 200 | 13 | 17 | 56 |
| Cc1ccc([N+](=O)[O-])c(C[N+](C)(CCCl)CCCl)c1 | 200 | 10 | 0.13 | 68 | 19 |
| COc1ccc([N+](=O)[O-])c(C[N+](C)(CCCl)CCCl)c1 | 300 | 500 | 2.9 | 45 | 26 |
